Data as given in US20230043678A1, “USE OF 5-METHYLTETRAHYDROFOLATE” (priority 2019, published 2023).

Test system: zebrafish embryos
Method: A table was listed below for details.
5-Selected concentrations of methyltetrahydrofolate in the experiment were recorded in the table.

For lead nitrate [Pb(NO3)2], the “survival rate of embryos” value (2 and 4 mM Pb(NO3)2, 2-8 hpf) was “reduced a survival rate of embryos”, the “intersegmental blood vessels and pericardium edema” value (2 and 4 mM Pb(NO3)2, 48 hpf) was “did not affect development of intersegmental blood vessels in the zebrafish and did not lead to pericardium edema” and the embryo phenotype (2 and 4 mM Pb(NO3)2, 72 hpf) was “led to a shortened body length of the zebrafish and a large amount of embryonic malformations”. For the same substance, the “10 s heart rate (48 hpf), body length and malformation rate (72 hpf)” value (Pb(NO3)2 2 and 4 mM) was “seriously led to bradycardia, a shortened body length and an increased malformation rate of embryos”.
